Results as given in US20130261178A1, “PHENOXYPROPANOL DERIVATIVES AND THEIR USE IN TREATING CARDIAC AND CARDIOVASCULAR DISEASES” (priority 2010, published 2013).

The chains behind the UniProt entries cited, without tags or fusion partners.
UniProt P07550, whole entry: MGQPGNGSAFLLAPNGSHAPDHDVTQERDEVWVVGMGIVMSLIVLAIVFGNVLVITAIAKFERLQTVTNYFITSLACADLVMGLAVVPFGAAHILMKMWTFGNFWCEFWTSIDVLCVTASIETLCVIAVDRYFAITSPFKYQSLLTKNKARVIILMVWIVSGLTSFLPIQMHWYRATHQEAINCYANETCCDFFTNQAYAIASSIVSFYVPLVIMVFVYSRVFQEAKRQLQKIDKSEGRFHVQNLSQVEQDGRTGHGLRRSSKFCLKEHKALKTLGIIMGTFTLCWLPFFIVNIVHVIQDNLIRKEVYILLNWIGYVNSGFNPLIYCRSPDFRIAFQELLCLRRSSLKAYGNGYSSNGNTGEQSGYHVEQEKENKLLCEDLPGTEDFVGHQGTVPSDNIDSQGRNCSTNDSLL
UniProt P08588, whole entry: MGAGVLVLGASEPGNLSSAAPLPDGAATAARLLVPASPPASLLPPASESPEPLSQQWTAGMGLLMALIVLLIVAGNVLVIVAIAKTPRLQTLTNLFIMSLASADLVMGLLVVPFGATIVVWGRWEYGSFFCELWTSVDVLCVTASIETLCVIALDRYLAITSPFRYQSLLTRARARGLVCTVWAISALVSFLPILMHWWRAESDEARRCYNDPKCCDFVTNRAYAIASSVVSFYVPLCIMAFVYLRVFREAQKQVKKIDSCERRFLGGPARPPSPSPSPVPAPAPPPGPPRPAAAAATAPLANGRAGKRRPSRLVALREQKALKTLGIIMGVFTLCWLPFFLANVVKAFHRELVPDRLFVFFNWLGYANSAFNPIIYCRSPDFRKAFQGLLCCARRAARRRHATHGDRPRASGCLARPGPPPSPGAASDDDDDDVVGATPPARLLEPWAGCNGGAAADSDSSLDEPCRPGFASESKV

What was measured:
human beta2-adrenoceptor = molecular target: T1, human beta2-adrenoceptor (Homo sapiens, UniProt P07550); experiment: 3H-CGP12177 whole-cell binding, CHO cells expressing human beta2-adrenoceptor; conditions: 3H-CGP 12177 whole cell binding, mean ± s.e.mean
T1 construct: expressed in transfected cells; host or cells: CHO cells
Method: Selectivity of ligands for the three beta-adrenoceptors was assessed by whole-cell binding studies using ^3H-CGP12177 in CHO cells expressing the human beta1, beta2 or beta3-adrenoceptors respectively essentially as described by Baker (2005; Br. J Pharmacol: 144, 317-22). Values shown are KD values determined as described by Baker (2005).
The selectivity of a ligand is given by the ratio of beta-1 to beta-2 KD. Accordingly a difference of one in the logarithmic values thereof represents a 10-fold selectivity, a difference of 2 represents 100-fold selectivity and a difference of 3 represents 1000-fold selectivity etc.

beta1-adrenoceptor = beta1-adrenoceptor (Homo sapiens, UniProt P08588); experiment: 3H-CGP12177 whole-cell binding, CHO cells expressing human beta1-adrenoceptor; design: expressed in transfected cells; host or cells: CHO cells; conditions: 3H-CGP 12177 whole cell binding, mean ± s.e.mean

| Compound | Beta 2 Log KD (human beta2-adrenoceptor) | Beta 1 Log KD (beta1-adrenoceptor) |
| --- | --- | --- |
| Cc1ccc(NC(=O)NCCNCC(O)COc2ccc(OCCOC3CCCC3)cc2)cc1 (centres unmarked) [47d] | −5.80 ± 0.03 |  |
| O=C(NCCNCC(O)COc1ccc(OCCOC2CCCC2)cc1)Nc1ccccc1Cl (centres unmarked) [47k] | −5.54 ± 0.03 |  |
| O=C(NCCNCC(O)COc1ccc(OCCOC2CCCC2)cc1)Nc1cccc(Br)c1 (centres unmarked) [47o] | −5.99 ± 0.04 |  |
| O=C(NCCNCC(O)COc1ccc(OCCOC2CCCC2)cc1)Nc1ccccc1O (centres unmarked) [47t, 1-(2-(3-(4-(2-(Cyclopentyloxy)ethoxy)phenoxy)-2-hydroxypropylamino)ethyl)-3-(2-hydroxyphenyl)urea] | −5.96 ± 0.05 |  |
| N#Cc1cc(OCCOCC2CC2)ccc1OCC(O)CNCCNC(=O)Nc1ccc(O)cc1 (centres unmarked) [LK204-545] |  | −8.09 ± 0.04 |
